# Test results as given in PubChem BioAssay AID624377 (The Scripps Research Institute Molecular Screening Center, 2012).
# The chains behind the UniProt entries cited, without tags or fusion partners. Residues count along the entry.
# UniProt Q9ULH1, 325-724 limits assumed: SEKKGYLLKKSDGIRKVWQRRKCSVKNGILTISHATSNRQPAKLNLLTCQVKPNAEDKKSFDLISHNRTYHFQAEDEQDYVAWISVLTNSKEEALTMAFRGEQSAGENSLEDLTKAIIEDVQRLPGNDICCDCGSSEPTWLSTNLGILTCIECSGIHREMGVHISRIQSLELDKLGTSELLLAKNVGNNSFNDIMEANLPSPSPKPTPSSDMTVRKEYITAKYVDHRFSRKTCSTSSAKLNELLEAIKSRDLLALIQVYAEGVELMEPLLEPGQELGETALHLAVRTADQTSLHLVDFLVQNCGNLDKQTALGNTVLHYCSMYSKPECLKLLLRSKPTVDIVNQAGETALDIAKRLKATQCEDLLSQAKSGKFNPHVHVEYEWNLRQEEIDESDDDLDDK
# This is a selection; strong and weak results do not stand in their true shares. The source made the active and inactive calls. Rule as the data show it: active = inhibition above about 25%; inactive = the rest.
# Target: Arf-GAP with SH3 domain, ANK repeat and PH domain-containing protein 1 (Homo sapiens) (UniProt Q9ULH1)
# Assay: blockers of ASAP1-stimulated ARF1 GTP hydrolysis – biochemical, fluorescence polarization, primary screen (AID 624377);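 also: 0% = vehicle with enzyme and substrate and 100% = no enzyme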
# Conditions: GDP FP detection, at 16.5 µM, active compounds read high
row,Compound,inhibition
1,CCOc1ccc(C)cc1CN(CCCl)CCCl,inactive: -2.31%
2,CC(C)(C)n1nnnc1C(c1ccccc1)N1CCC(n2c(=O)[nH]c3ccccc32)CC1 (stereo not drawn),inactive: 6.82%
3,O=C1CCN(Cc2ccccc2)CC1,inactive: -0.23%
4,CCCCOc1ccc(C(=O)NCC2(N3CCOCC3)CCCCC2)cc1,inactive: -10.1%
5,O=P1(N(CCCl)CCCl)SCCCS1,inactive: 12.6%
6,CCCCn1nnnc1C(c1cc2ccccc2o1)N1CCC(n2c(=O)[nH]c3ccccc32)CC1 (stereo not drawn),inactive: -7.48%
7,O=C(NCC1(N2CCCCC2)CCCCC1)c1ccc(F)cc1,inactive: 7.46%
8,CCOC(=O)N1CCC(Nc2ccc(F)cc2)CC1,inactive: -2.49%
9,COc1ccc(NC2CCN(CCc3ccccc3)CC2)c(OC)c1,inactive: -11.2%
10,O=c1[nH]c2ccccc2n1C1CCN(C(c2ccccc2)c2nnnn2C2CCCCC2)CC1 (stereo not drawn),inactive: 2.41%
11,O=c1[nH]c2ccccc2n1C1CCN(C(c2cccc3ccccc23)c2nnnn2C2CCCC2)CC1 (stereo not drawn),inactive: 9%
12,CCOC(=O)N1CCC(Nc2cccc(C)c2)CC1,inactive: -2.89%
13,COc1cc(C(=O)NCC2(N(C)C)CCCCC2)ccc1OC(F)F,inactive: 2.33%
14,O=C(NCC1(N2CCCCC2)CCCCC1)c1ccc(=O)[nH]c1,inactive: 0.64%
15,O=C(NCC1(N2CCCCC2)CCCCC1)c1cccs1,inactive: 4.04%
16,CCCCn1nnnc1C(CC)N1CCC(n2c(=O)[nH]c3ccccc32)CC1 (stereo not drawn),inactive: -9.22%
17,CCCCn1nnnc1C(c1cccs1)N1CCC(n2c(=O)[nH]c3ccccc32)CC1 (stereo not drawn),inactive: 3.91%
18,COc1ccc(C(=O)NCC2(N3CCCCC3)CCCCC2)cc1,inactive: -12.2%
19,CC(C)(C)OC(=O)N1CCC(N(C(=O)c2ccccc2)c2ccc(F)cc2)CC1,inactive: -4.31%
20,COc1ccc(C(=O)NCC2(N3CCCCC3)CCCCC2)c(OC)c1OC,inactive: -0.83%
21,CCC(c1nnnn1C1CCCC1)N1CCC(n2c(=O)[nH]c3ccccc32)CC1 (stereo not drawn),inactive: -2.29%
22,CSc1ccccc1C(=O)NCC1(N2CCCCC2)CCCCC1,inactive: 2.36%

row,Compound,inhibition
1,Cc1cccc(NC2(C#N)CCN(Cc3ccccc3)CC2)c1,inactive: 0.1%
2,O=C(NCC1(N2CCOCC2)CCCCC1)c1cc2ccccc2o1,inactive: 2.44%
3,O=C(NCC1(N2CCCCC2)CCCCC1)c1ccc(Cl)nc1,inactive: 4.18%
4,O=c1[nH]c2ccccc2n1C1CCN(C(c2ccccc2OC(F)(F)F)c2nnnn2C2CCCCC2)CC1 (stereo not drawn),inactive: -8.64%
5,Cc1cc(C)cc(N(C(=O)c2ccccc2)C2CCN(C(=O)OC(C)(C)C)CC2)c1,inactive: 1.68%
6,CCOC(=O)N1CCC(Nc2ccc(OC)cc2)CC1,inactive: -3.93%
7,CCCCn1nnnc1C(c1ccc(OC)cc1)N1CCC(n2c(=O)[nH]c3ccccc32)CC1 (stereo not drawn),inactive: -16.3%
8,N#CC1(Nc2ccccc2)CCN(Cc2ccccc2)CC1,inactive: 6.01%
9,O=C(NCC1(N2CCCCC2)CCCCC1)c1ccc(Cl)s1,inactive: -0.55%
10,O=c1[nH]c2ccccc2n1C1CCN(C(c2cc3ccccc3o2)c2nnnn2C2CCCCC2)CC1 (stereo not drawn),inactive: 2.86%
11,O=C(OC1CN2CCC1CC2)C1c2ccccc2Oc2ccccc21 (stereo not drawn),inactive: 0.3%
12,COc1ccc(Cl)cc1C(=O)NCC1(N2CCOCC2)CCCCC1,inactive: -3.23%
13,COc1ccc(CN(CCCl)CCCl)cc1Cl,inactive: -9.62%
14,CN(C)c1cccc(C(=O)NCC2(N3CCCCC3)CCCCC2)c1,inactive: -6.75%
15,CC(C)c1ccc(NC2CCN(C(=O)OC(C)(C)C)CC2)cc1,inactive: -12.9%
16,CCCCn1nnnc1C(c1ccnc2ccccc12)N1CCC(n2c(=O)[nH]c3ccccc32)CC1 (stereo not drawn),inactive: 0.86%
17,COc1cc(OC)c(C(=O)NCC2(N(C)C)CCCCC2)cc1OC,inactive: -0.59%
18,CCC(c1nnnn1C(C)(C)C)N1CCC(n2c(=O)[nH]c3ccccc32)CC1 (stereo not drawn),inactive: 9.67%
19,O=C(NCC1(N2CCOCC2)CCCCC1)c1cc(F)c(F)cc1Cl,inactive: 11.4%
20,CN1CCC(Nc2cccc(F)c2)CC1,inactive: 23.6%
21,O=C(NCC1(N2CCCCC2)CCCCC1)c1cncc(Br)c1,inactive: -5.26%
22,Cc1ccc(C(=O)NCC2(N(C)C)CCCCC2)o1,inactive: -7.27%

row,Compound,inhibition
1,CCCOc1ccc(C(=O)NCC2(N(C)C)CCCCC2)cc1OC,inactive: -3.8%
2,COc1ccc(C(c2nnnn2C2CCCC2)N2CCC(n3c(=O)[nH]c4ccccc43)CC2)cc1 (stereo not drawn),inactive: -1.95%
3,CC(C)(C)n1nnnc1C(c1ccccc1OC(F)(F)F)N1CCC(n2c(=O)[nH]c3ccccc32)CC1 (stereo not drawn),inactive: -0.19%
4,O=C(NCC1(N2CCCCC2)CCCCC1)c1ccc(OC(F)F)cc1,inactive: 2.63%
5,CSc1ccc(C(=O)NCC2(N3CCOCC3)CCCCC2)cc1,inactive: -2.82%
6,O=C(NCC1(N2CCCCC2)CCCCC1)c1cccc([N+](=O)[O-])c1,inactive: -5.8%
7,CCN1CCC(Nc2ccc(Cl)cc2)CC1,inactive: 2.85%
8,O=c1[nH]c2ccccc2n1C1CCN(C(c2ccccc2OC(F)(F)F)c2nnnn2C2CCCC2)CC1 (stereo not drawn),inactive: -8.43%
9,N#CC1(Nc2ccccc2)CCN(CCc2ccccc2)CC1,inactive: 11.3%
10,O=C(NCC1(N2CCCCC2)CCCCC1)c1cccc(C(F)(F)F)c1,inactive: -2.77%
11,CC(C)c1ccc(C(=O)NCC2(N3CCOCC3)CCCCC2)cc1,inactive: 7.5%
12,COc1ccc(NC2CCN(C(=O)OC(C)(C)C)CC2)cc1,inactive: -8.28%
13,CN1CCN(CCOC(=O)C(O)(c2ccccc2)c2ccccc2)CC1,inactive: 0.04%
14,CCCCn1nnnc1C(c1cccc2ccccc12)N1CCC(n2c(=O)[nH]c3ccccc32)CC1 (stereo not drawn),inactive: 12.2%
15,O=C(NCC1(N2CCOCC2)CCCCC1)c1cc(=O)[nH]c2ccccc12,inactive: 9.41%
16,COc1cc(C(=O)NCC2(N3CCCCC3)CCCCC2)ccc1OC(F)F,inactive: -3.92%
17,CC(C)(C)OC(=O)N1CCC(N(C(=O)c2ccccc2)c2ccc(Cl)cc2)CC1,inactive: -2.35%
18,N#Cc1ccc(C(=O)NCC2(N3CCCCC3)CCCCC2)cc1,inactive: -9.21%
19,C/C(N)=N\P(=O)(Oc1ccccc1)Oc1ccccc1,inactive: -0.67%
20,c1ccc(CN2CCC(Nc3ccccc3)CC2)cc1,inactive: 2.64%
21,Cc1cc(N(CCCl)CCCl)ccc1C=O,inactive: -18.1%
22,O=c1[nH]c2ccccc2n1C1CCN(C(c2ccccc2)c2nnnn2C2CCCC2)CC1 (stereo not drawn),inactive: -2.97%

row,Compound,inhibition
1,CCCN1CCC(Nc2cc(OC)cc(OC)c2)CC1,inactive: 16%
2,CN(C)C1(CNC(=O)c2cccc(C#N)c2)CCCCC1,inactive: -4.62%
3,CC(C)(C)n1nnnc1C(c1cccc2ccccc12)N1CCC(n2c(=O)[nH]c3ccccc32)CC1 (stereo not drawn),inactive: -13.8%
4,O=C(NCC1(N2CCOCC2)CCCCC1)c1cc(Br)ccc1Cl,inactive: -14.2%
5,CCCCn1nnnc1C(c1ccccc1)N1CCC(n2c(=O)[nH]c3ccccc32)CC1 (stereo not drawn),inactive: -5.11%
6,COc1cc(C(=O)NCC2(N3CCOCC3)CCCCC2)cc(OC)c1C,inactive: 6.8%
7,COc1ccc(C(=O)NCC2(N3CCOCC3)CCCCC2)cc1OC,inactive: 15.6%
8,O=c1[nH]c2ccccc2n1C1CCN(C(c2ccnc3ccccc23)c2nnnn2C2CCCC2)CC1 (stereo not drawn),inactive: 9.02%
9,O=c1[nH]c2ccccc2n1C1CCN(C(c2cccs2)c2nnnn2C2CCCCC2)CC1 (stereo not drawn),inactive: -5.18%
10,N/C(=N\O)c1c(N)no[n+]1[O-],inactive: -15.2%
11,CCOC(=O)N1CCC(Nc2ccc(C)cc2)CC1,inactive: -3.59%
12,COc1cccc(C(c2nnnn2C(C)(C)C)N2CCC(n3c(=O)[nH]c4ccccc43)CC2)c1OC (stereo not drawn),inactive: -11.6%
13,CCCCn1nnnc1C(c1cccc(OC)c1OC)N1CCC(n2c(=O)[nH]c3ccccc32)CC1 (stereo not drawn),inactive: -6%
14,O=C(OC1CN2CCC1CC2)C1c2ccccc2C=Cc2ccccc21 (stereo not drawn),inactive: -14.8%
15,O=c1[nH]c2ccccc2n1C1CCN(C(c2cccs2)c2nnnn2C2CCCC2)CC1 (stereo not drawn),inactive: 4.24%
16,CCOc1ncccc1C(=O)NCC1(N2CCOCC2)CCCCC1,inactive: -20%
17,CN1CCC(Nc2ccc(F)c(Cl)c2)CC1,inactive: 2.48%
18,O=c1[nH]c2ccccc2n1C1CCN(C(c2cc3ccccc3o2)c2nnnn2C2CCCC2)CC1 (stereo not drawn),inactive: -2.11%
19,CCCOc1ccc(C(=O)NCC2(N(C)C)CCCCC2)cc1,inactive: 0.46%
20,CC(C)(C)OC(=O)N1CCC(Nc2ccccc2)CC1,inactive: 3.54%
21,NN(c1ccccc1)C1CCN(CCc2ccccc2)CC1,inactive: -5.86%
22,O=C(O)C1(Nc2ccccc2)CCN(Cc2ccccc2)CC1,inactive: -9.96%

row,Compound,inhibition
1,CCC(CO)(C(=O)OC1CN2CCC1CC2)c1ccccc1 (stereo not drawn),inactive: 6.91%
2,COc1cccc(C(=O)N(c2cc(C)cc(C)c2)C2CCN(C(=O)OC(C)(C)C)CC2)c1,inactive: -6.56%
3,COc1cccc(C(c2nnnn2C2CCCC2)N2CCC(n3c(=O)[nH]c4ccccc43)CC2)c1OC (stereo not drawn),inactive: -7.96%
4,COc1cc(OC)cc(C(=O)NCC2(N3CCOCC3)CCCCC2)c1,inactive: 5.73%
5,CN1CCC(Nc2ccc(Cl)cc2)CC1,inactive: 1.51%
6,COc1cc(OC)cc(C(=O)NCC2(N3CCCCC3)CCCCC2)c1,inactive: -13.2%
7,O=c1[nH]c2ccccc2n1C1CCN(C(c2ccnc3ccccc23)c2nnnn2C2CCCCC2)CC1 (stereo not drawn),inactive: 8.83%
8,COc1cccc(C(c2nnnn2C2CCCCC2)N2CCC(n3c(=O)[nH]c4ccccc43)CC2)c1OC (stereo not drawn),inactive: 2.06%
9,CC(=O)N(c1ccccc1)C1CCNCC1,inactive: -6.04%
10,CCC(c1nnnn1C1CCCCC1)N1CCC(n2c(=O)[nH]c3ccccc32)CC1 (stereo not drawn),inactive: 1.33%
11,Cc1ccc(NC2(C#N)CCN(Cc3ccccc3)CC2)cc1,inactive: 12.4%
12,Cc1ccc(C(=O)NCC2(N3CCCCC3)CCCCC2)o1,inactive: 1.02%
13,Fc1ccccc1NC1CCN(Cc2ccccc2)CC1,inactive: 0.99%
14,Cc1ccccc1NC1(C#N)CCN(Cc2ccccc2)CC1,inactive: 0.03%
15,CCN1CCC(Nc2cccc(F)c2)CC1,inactive: -4.45%
16,COc1ccc(C(c2nnnn2C2CCCCC2)N2CCC(n3c(=O)[nH]c4ccccc43)CC2)cc1 (stereo not drawn),inactive: 3.66%
17,CC(C)(C)n1nnnc1C(c1ccnc2ccccc12)N1CCC(n2c(=O)[nH]c3ccccc32)CC1 (stereo not drawn),inactive: 9.39%
18,O=C(NCC1(N2CCCCC2)CCCCC1)c1ccco1,inactive: 0.12%
19,CN(C)c1ccc(C(=O)NCC2(N3CCCCC3)CCCCC2)cc1,inactive: -1.86%
20,Cn1c(=O)[nH]cc(N(CCCl)CCCl)c1=O,inactive: 5.33%
